{"source": "ChEMBL document CHEMBL5500416", "about": "“Development of a Potent and Selective G2A (GPR132) Agonist” (J Med Chem, 2024)", "key": {"[1]": {"molecular_target": "T1, Probable G-protein coupled receptor 132 (Mus musculus) (UniProt Q9Z282)", "T1 sequence (whole entry)": "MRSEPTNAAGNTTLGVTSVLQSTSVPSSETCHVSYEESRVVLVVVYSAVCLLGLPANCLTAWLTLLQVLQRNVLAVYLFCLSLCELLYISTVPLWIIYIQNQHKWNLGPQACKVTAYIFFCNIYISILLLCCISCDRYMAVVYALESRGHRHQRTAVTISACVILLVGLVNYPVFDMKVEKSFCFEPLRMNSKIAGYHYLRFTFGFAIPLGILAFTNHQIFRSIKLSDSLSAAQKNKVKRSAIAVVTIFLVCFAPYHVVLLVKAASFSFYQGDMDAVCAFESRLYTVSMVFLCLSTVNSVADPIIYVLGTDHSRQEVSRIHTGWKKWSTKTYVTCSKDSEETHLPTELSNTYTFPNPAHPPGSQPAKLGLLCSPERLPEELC", "experiment": "(§1) Agonist activity at G2A in capsaicin-induced mouse primary sensory neurons assessed as induction of TRPV1 sensitization by measuring increase in amplitude of calcium response at 200 nM preincubated with capsaicin for 30 sec followed by compound administration for 2 mins and measured 30 sec after second capsaicin addition by calcium imaging analysis", "type": "cell-based", "conditions": "Primary sensory neuron, filed as agonist"}, "[2]": {"molecular_target": "T1, Probable G-protein coupled receptor 132 (Mus musculus)", "experiment": "as §1, with “at 400” for “at 200”, “for 4” for “for 2”", "type": "cell-based", "conditions": "Primary sensory neuron, filed as agonist, time 4.5 min"}, "[3]": {"molecular_target": "T1, Probable G-protein coupled receptor 132 (Mus musculus)", "experiment": "as §1, with “at 400” for “at 200”, “for 4” for “for 2”, “mins in presence of (S)-N-(1-(cyclohexylamino)-1-oxo-3-phenylpropan-2-yl)-6-hydroxy-4'-methoxy-[1,1'-biphenyl]-3-carboxamide” for “mins”", "type": "cell-based", "conditions": "Primary sensory neuron, time 4.5 min"}, "[4]": {"molecular_target": "T1, Probable G-protein coupled receptor 132 (Mus musculus)", "experiment": "as §1, with “at 100” for “at 200”, “for 4” for “for 2”, “mins in presence of (S)-N-(1-(cyclohexylamino)-1-oxo-3-phenylpropan-2-yl)-6-hydroxy-4'-methoxy-[1,1'-biphenyl]-3-carboxamide” for “mins”", "type": "cell-based", "conditions": "Primary sensory neuron, time 4.5 min"}, "[5]": {"molecular_target": "T2, Chemerin-like receptor 2 (Homo sapiens) (UniProt P46091)", "T2 sequence (whole entry)": "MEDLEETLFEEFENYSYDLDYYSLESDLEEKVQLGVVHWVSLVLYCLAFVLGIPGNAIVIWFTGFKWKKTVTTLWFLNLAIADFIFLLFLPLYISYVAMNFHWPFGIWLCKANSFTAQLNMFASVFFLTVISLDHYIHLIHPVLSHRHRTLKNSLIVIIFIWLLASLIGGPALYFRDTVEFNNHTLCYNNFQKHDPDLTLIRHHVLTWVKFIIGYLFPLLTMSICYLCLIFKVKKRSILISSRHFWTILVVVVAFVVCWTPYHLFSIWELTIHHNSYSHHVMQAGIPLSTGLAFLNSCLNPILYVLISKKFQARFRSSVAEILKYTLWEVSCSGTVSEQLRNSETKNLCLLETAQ", "experiment": "Agonist activity at human GPR1 expressed in HTLA cells assessed as beta-arrestin recruitment at 10 uM incubated for 24 hrs by PRESTO-Tango assay", "type": "functional, cell-based", "conditions": "filed as agonist"}, "[6]": {"molecular_target": "T2, Chemerin-like receptor 2 (Homo sapiens)", "experiment": "Displacement of TAMRA-labeled C9 from Nluc/eYFP-tagged GPR1 (unknown origin) transfected in HEK293 cells incubated for 1 hrs by BRET analysis", "type": "cell-based"}, "[7]": {"molecular_target": "T1, Probable G-protein coupled receptor 132 (Mus musculus)", "experiment": "as §1, with “1 uM” for “200 nM”", "type": "cell-based", "conditions": "Primary sensory neuron, filed as agonist"}}, "note": "Calls of active or inactive are those of the source. The calls are words filed in the database; no cut-off is given here."}
{"molecule": "CCCCC/C=C\\C=C\\C(O)CCCCCCCC(=O)O", "note": "(racemic)", "values": [{"measurement": "Activity", "setting": "[1]", "value": "Active"}, {"measurement": "Activity", "setting": "[2]", "value": "Active"}, {"measurement": "Activity", "setting": "[3]", "value": "inactive"}]}
{"molecule": "O=C(N[C@H](Cc1ccccc1)C(=O)O)c1cccc(OCc2cccnc2)c1", "values": [{"measurement": "Activity", "setting": "[4]", "value": "inactive"}, {"measurement": "Activity", "setting": "[5]", "value": "Active"}, {"measurement": "Activity", "setting": "[6]", "value": "inactive"}]}
{"molecule": "O=C(NC(Cc1ccccc1)C(=O)O)c1cccc(OCc2cccnc2)c1", "note": "(configuration not stated)", "values": [{"measurement": "Activity", "setting": "[7]", "value": "Active"}]}
